Patent US10307371B2 (AI Therapeutics, Inc., priority 2014, dated 2019)

Test system: mTOR
Experiment: S6 phosphorylation in mouse lung as biomarker for mTOR activity
Details: 1 mg/kg

CO[C@H]1C[C@@H]2CC[C@@H](C)[C@@](O)(O2)C(=O)C(=O)N2CCCC[C@H]2C(=O)O[C@H]([C@H](C)C[C@@H]2CC[C@@H](O)[C@H](OC)C2)CC(=O)[C@H](C)/C=C(\C)[C@@H](O)[C@@H](OC)C(=O)[C@H](C)C[C@H](C)/C=C/C=C/C=C/1C [Rapamycin, (3S,6R,7E,9R,10R,12R,14S,15E,17E,19E,21S,23S,26R,27R,34aS)-9,10,12,13, -14,21,22,23,24,25,26,27,32,33,34,34a-hexadecahydro-9,27-dihydroxy-3-[(1R)-2-[(1S,3R,4R)-4-hydroxy-3-methoxycyclohexyl]-1-methylethyl]-10,21-dimethox-y-6,8,12,14,20,26-hexamethyl-23,27-epoxy-3H-pyrido[2,1-c][1,4]oxaazacyclohentriacontine-1,5,11,28,29(4H,6H,31H)-pentone]
Level of phosphorylated S6 (pS6) in lung tissue (OPA, 1 hr, versus vehicle): reduced substantially
Level of phosphorylated S6 (pS6) in lung tissue (OPA, 72 hr): remained suppressed
Level of phosphorylated S6 (pS6) in lung tissue (oral gavage, 1 hr, versus vehicle): reduced substantially
